Data on 2 compounds can be found in article PMC5291514, “Structure activity relationship and modeling studies of inhibitors of lysine specific demethylase 1” (PLoS ONE, 2017).

A word on the IC50: it is the midpoint of a concentration-inhibition curve.

For one test, the target named is recombinant human LSD1 (Homo sapiens, UniProt O60341). Nature of the test: LSD1 enzyme inhibition, HRP-coupled Amplex red assay. Type of test: biochemical.
Another test deals with MAO-A and -B. Nature of the test: Inhibition of MAO-A/-B, MAO-Glo assay kit, one range given over both enzymes. Particulars: read-out: IC50 against MAO-A and -B; range over both enzymes and the named compounds; tested form: 2HCl.

As for `N[C@@H]1C[C@H]1c1ccc(-c2ccc(F)nc2)cc1` (relative stereo), on recombinant human LSD1 (7 vs 1, 8 vs 2, 9 vs 3, tested form: 2HCl), the “fold less active against LSD1 than the corresponding compounds 1–3” value is given as 69 fold. Also, the half-maximal inhibitory concentration (IC50) at MAO-A and -B lay in the range of 170 to 3100 nM.

On to `COc1cc(C=N[C@@H]2C[C@H]2c2ccc(Br)cc2)cc(OC)c1OC` (relative stereo), for which the “LSD1 inhibitory activity in words” value at recombinant human LSD1 was “almost loses the inhibitory activity”. Moreover, at recombinant human LSD1 (read-out: LSD1 IC50, Table 1, 30 nM LSD1, 30 min preincubation, 10 μM H3K4Me2 peptide), the half-inhibitory concentration (IC50) came to 94 µM.
